pIC50: −log10 of the molar value.

Protein sequences, listed by entry. Tags and fused reporters are not part of them.
UniProt Q9UK32, whole entry: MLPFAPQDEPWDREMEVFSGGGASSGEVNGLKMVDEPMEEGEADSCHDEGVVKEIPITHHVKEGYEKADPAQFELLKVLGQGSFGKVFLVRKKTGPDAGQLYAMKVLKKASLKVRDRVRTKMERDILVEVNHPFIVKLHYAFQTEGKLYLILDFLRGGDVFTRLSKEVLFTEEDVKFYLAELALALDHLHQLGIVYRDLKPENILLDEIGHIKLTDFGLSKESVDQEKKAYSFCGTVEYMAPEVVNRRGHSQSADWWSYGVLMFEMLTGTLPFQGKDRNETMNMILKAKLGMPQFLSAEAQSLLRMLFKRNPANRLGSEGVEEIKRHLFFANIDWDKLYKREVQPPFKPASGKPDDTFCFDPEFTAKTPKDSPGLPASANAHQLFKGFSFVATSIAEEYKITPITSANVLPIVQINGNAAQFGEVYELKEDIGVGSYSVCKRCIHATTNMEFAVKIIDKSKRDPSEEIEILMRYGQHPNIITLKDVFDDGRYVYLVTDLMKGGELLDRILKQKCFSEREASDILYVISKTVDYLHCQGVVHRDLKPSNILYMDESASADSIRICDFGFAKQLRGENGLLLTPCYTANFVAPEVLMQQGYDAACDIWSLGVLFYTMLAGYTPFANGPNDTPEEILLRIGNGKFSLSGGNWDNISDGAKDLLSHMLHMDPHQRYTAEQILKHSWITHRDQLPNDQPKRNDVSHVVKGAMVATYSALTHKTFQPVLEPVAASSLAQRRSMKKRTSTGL

The target in the assay is Ribosomal protein S6 kinase alpha-6 (Homo sapiens, UniProt Q9UK32). Put plainly: In Vitro Enzyme Activity Assay.

By pIC50 is commonly meant −log10 of the IC50, conventionally taken in molar units. A high value points to a small IC50. `Cc1cc(=O)n(C2CCNC2)c2nc(Nc3ccc4[nH]ncc4c3)ncc12` (stereo unspecified) [US20250388576, Compound 006] showed a pIC50 of 6.88.

These data come from BindingDB's records for patent US20250388576 (East China Normal University, 2025).
